Data published in US5906922A, “Delivery of nucleic acids” (Commonwealth Scientific and Industrial Research Organisation, priority 1994, dated 1999).

Test system: Cos 1 cells
Assay: MTT cytotoxicity assay
Assay type: cell-based, African Green Monkey
Settings: 72 hours continuous exposure, 50 μM or greater
Experimental: Cytotoxicity was assayed using a standard MTT (3-[4,5x, Dimethylthiazol-2-yl]2, 5-diphenyltetrazolium bromide; Thiazole blue) assay. Briefly Cos 1 cells were seeded at 2×10^4 cells/well in a 96 well microtitre tray and allowed to adhere overnight in 100 μl of culture medium. Test compound was then added at 2×concentration in 100 μl of culture medium in doubling dilutions down the plate. Cells were incubated under normal culture conditions of 37° C. and 5% CO2 for 72 hours. 20 μl of MTT (5mg/ml in PBS) was added for 2.5 hours at 37° C. and then all liquid removed. 100 μl of acidic propanol was added and the plate shaken for 10 minutes before reading the OD at 570 nm with ref OD 630 nm.
A lead compound, K3ATP3 (tri lysine alanine tris tripalmitate) called VerafectinA3, was designed which would be expected to attract DNA by virtue of its overall positive charge. […] Cytotoxicity was tested by exposing Cos 1 cells continuously for 72 hours to the K3ATP3 diluted from a stock of 2.5 mg/ml in 25% DMSO. There was 70% survival of cells compared to the same concentration of DMSO diluent at 12.5-50 μM compound (FIG. 1a and b).

fluorescein alanine ethanolamine palmitate [FLAEP]
cytotoxicity (MTT): significant cytotoxicity
